# Results taken from PubChem BioAssay AID1554 (Broad Institute, 2009).
# The entries are a selection whose mix differs from that of the whole data set. Some tests of the compounds listed are not included; inactive here does not mean inactive elsewhere. Activity calls are given as the source filed them. Cut-off read from the data, not from the text of the source: active = inhibition above about 50%; inconclusive = no clear call, values can overlap the other calls; inactive = below that.
# Test: PubChem AID 1554
# Settings: BJeLR (HRASV12) viability, CellTiter-Glo ATP luminescence, 48 h; stronger effect = higher value; concentration not given here
row,SMILES,inhibition
1,O=C(OC1CN2CCC1CC2)C(CO)(c1ccccc1)c1ccccc1 (centres undefined),inactive: 2.17%
2,CN(C)c1cccc(C(=O)NCC2(N(C)C)CCCCC2)c1,inactive: -4.01%
3,CC(C)Oc1ccc(C(=O)NCC2(N(C)C)CCCCC2)cc1,inactive: -3.94%
4,COc1ccc(Br)c(C(=O)NCC2(N3CCCCC3)CCCCC2)c1,inactive: -9.07%
5,COc1cc(C(=O)NCC2(N(C)C)CCCCC2)c([N+](=O)[O-])cc1OC,inactive: 10%
6,CN(C)C1(CNC(=O)c2ccc(Br)cc2)CCCCC1,inactive: -0.0676%
7,O=C(NCC1(N2CCCCC2)CCCCC1)c1cccc(Cl)c1,inactive: 4.66%
8,COc1cccc(C(=O)NCC2(N3CCCCC3)CCCCC2)c1,inactive: -2.39%
9,COc1ccc(Cl)cc1C(=O)NCC1(N(C)C)CCCCC1,inactive: -10.4%
10,Cc1ccccc1C(=O)NCC1(N2CCCCC2)CCCCC1,inactive: -2.35%
11,CN(C)c1ccc(C(=O)NCC2(N(C)C)CCCCC2)cc1,inactive: -3.23%
12,CN(C)C1CCCC1OC(=O)C(O)(c1ccccc1)c1ccccc1 (centres undefined),inactive: -17.4%
13,CCN1CCCC(OC(=O)C2(O)c3ccccc3C=Cc3ccccc32)C1 (centres undefined),inactive: 2.16%
14,Cc1cc(C(=O)NCC2(N3CCCCC3)CCCCC2)ccc1[N+](=O)[O-],inactive: 2.11%
15,O=C(NCC1(N2CCCCC2)CCCCC1)c1cccc(Br)c1,inactive: -2.44%
16,COc1ccc(C(=O)NCC2(N(C)C)CCCCC2)cc1,inactive: -7.15%
17,C=CCN1CCN(CCOC(=O)C(O)(c2ccccc2)c2ccccc2)CC1,inactive: 3.97%
18,O=C(NCC1(N2CCCCC2)CCCCC1)c1cc(F)c(F)cc1Cl,inactive: 6.41%
19,CN1[C@@H]2CC[C@H]1CC(OC(=O)C(O)(c1ccccc1)c1ccccc1)C2 (some centres undefined),inactive: -5.03%
20,O=C(NCC1(N2CCCCC2)CCCCC1)c1cc([N+](=O)[O-])ccc1Cl,inactive: 4.11%
21,Cc1ccc(C(=O)NCC2(N3CCCCC3)CCCCC2)cc1,inactive: 5.35%
22,CC(C)N1C(=O)CC2(CCN(CCOC(=O)C(O)(c3ccccc3)c3ccccc3)CC2)C1=O,inactive: -7.74%
23,CCN(CC)CC(C)C(C)OC(=O)C(O)(c1ccccc1)c1ccccc1 (centres undefined),inactive: 5.61%
24,COc1cc(SC)ccc1C(=O)NCC1(N(C)C)CCCCC1,inactive: -4.09%
